# Laboratory results taken from patent publication US20100169988A1, “MEANS AND METHODS FOR ISOLATING AND DETERMINING NOVEL TARGETS FOR THE TREATMENT OF NEURODEGENERATIVE, NEUROLOGICAL OR NEUROPSYCHIATRIC DISORDERS AND COMPOSITIONS COMPRISING THE SAME” (priority 2006, published 2010).
# Tests used:
# [1] = target: APP-TAP-AICD (human) (UniProt P05067); test: streptavidin purification of APP-TAP-AICD from brain homogenate; iTRAQ 116/114, transgenic mouse 75 vs control mouse 72; MALDI-TOF/TOF
# [2] = target: APP-TAP-AICD (human) (UniProt P05067); test: streptavidin purification of APP-TAP-AICD from brain homogenate; LTQ-FT semiquantitative method, transgenic mouse 75 vs control mouse 72
Substance,iTRAQ ratio [1],probability that this protein is enriched [2]
Dihydropyrimidinase related protein-2 (DRP-2) (ULIP 2 protein) (from UniProt O08553 1-572) (other; other documents disagree on this pair),3.92,–
Glucose-6-phosphate isomerase (GPI) (Phosphoglucose isomerase) (PGI) (from UniProt P06745 2-558) (enzyme; other documents disagree on this pair),4.48,–
Sodium/potassium-transporting ATPase alpha-1 chain precursor (Sodium pump 1) (from UniProt Q8VDN2 6-1023) (enzyme; other documents disagree on this pair),4.71,–
Synaptosomal-associated protein 25 (SNAP-25) (Synaptosomal-associated 25 kDa protein) (from UniProt P60879 1-206),4.41,0.88
